The source of these data is patent US20090299044A1 (priority 2006, published 2009).

Amino acid sequences for entries named in this document (tags omitted).
UniProt Q09470, whole entry: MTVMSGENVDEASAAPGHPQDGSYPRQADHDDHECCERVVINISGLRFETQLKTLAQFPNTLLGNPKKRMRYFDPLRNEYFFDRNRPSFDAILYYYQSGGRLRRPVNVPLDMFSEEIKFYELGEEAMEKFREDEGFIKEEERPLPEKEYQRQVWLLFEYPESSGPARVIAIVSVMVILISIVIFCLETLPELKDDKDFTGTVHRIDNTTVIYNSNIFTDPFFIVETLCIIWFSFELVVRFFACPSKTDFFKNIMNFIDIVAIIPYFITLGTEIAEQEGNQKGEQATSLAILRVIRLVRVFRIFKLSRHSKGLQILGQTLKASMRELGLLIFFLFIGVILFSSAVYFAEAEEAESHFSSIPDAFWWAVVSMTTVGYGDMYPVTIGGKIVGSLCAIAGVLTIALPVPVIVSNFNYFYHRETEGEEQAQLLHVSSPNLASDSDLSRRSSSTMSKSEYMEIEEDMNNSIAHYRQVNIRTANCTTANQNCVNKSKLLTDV
UniProt P22001, whole entry: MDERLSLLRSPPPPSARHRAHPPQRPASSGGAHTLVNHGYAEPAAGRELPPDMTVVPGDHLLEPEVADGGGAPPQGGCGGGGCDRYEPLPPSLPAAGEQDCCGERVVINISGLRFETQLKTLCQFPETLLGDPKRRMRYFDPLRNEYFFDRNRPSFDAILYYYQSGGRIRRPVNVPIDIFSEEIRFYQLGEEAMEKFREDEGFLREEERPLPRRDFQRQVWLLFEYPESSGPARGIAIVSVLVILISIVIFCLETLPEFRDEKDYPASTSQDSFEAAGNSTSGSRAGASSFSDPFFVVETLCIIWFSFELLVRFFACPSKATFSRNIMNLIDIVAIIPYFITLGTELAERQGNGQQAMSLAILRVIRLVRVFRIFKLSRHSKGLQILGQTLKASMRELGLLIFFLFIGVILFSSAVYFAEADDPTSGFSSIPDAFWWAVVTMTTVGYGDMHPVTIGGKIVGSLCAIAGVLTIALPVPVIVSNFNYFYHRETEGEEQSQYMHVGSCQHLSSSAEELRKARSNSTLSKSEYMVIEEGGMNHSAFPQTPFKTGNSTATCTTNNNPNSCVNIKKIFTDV

What all share (test): cell-based
One assay concerns the target T1, human Kv1.1 (HEK293) (Homo sapiens, UniProt Q09470).
T1 construct: expressed in transfected cells; host or cells: HEK293

For the next assay, the target named is human Kv1.1 (Homo sapiens, UniProt Q09470). Also noted: expressed in transfected cells; host or cells: HEK293. The settings on record: for IC50: Kv1.1 (IC50, pM).
The target of another assay is human Kv1.3 channel (Homo sapiens, UniProt P22001).
For a further assay, the target named is T2, human Kv1.3 (CHO) (Homo sapiens, UniProt P22001).
T2 construct: expressed in transfected cells; host or cells: CHO

pIC50: −log10 of the molar value.

In the case of `CC[C@H](C)[C@@H]1NC(=O)[C@H](CCCCN)NC(=O)[C@@H](NC(=O)[C@H](CCCCN)NC(=O)[C@@H](NC(=O)[C@H](CC(N)=O)NC(=O)[C@@H](NC(=O)[C@@H](NC(=O)[C@@H](NC(=O)CN)C(C)C)[C@@H](C)CC)[C@@H](C)CC)C(C)C)CSSC[C@@H]2NC(=O)[C@H](CCCCN)NC(=O)CNC(=O)[C@H](Cc3ccccc3)NC(=O)[C@H](CCCNC(=N)N)NC(=O)[C@H](CCSC)NC(=O)CNC(=O)[C@H](C)NC(=O)[C@H](CCCCN)NC(=O)[C@H](CCCCN)NC(=O)[C@@H]3CSSC[C@@H](C(=O)N[C@H](C(=O)N4CCC[C@H]4C(=O)N[C@@H](CCCCN)C(=O)O)[C@@H](C)O)NC(=O)[C@H](Cc4c[nH]cn4)NC(=O)[C@H](CSSC[C@H](NC(=O)[C@H](CCC(N)=O)NC(=O)[C@H](CCCNC(=N)N)NC(=O)[C@H](Cc4cccc5ccccc45)NC1=O)C(=O)N[C@@H](CC(C)C)C(=O)N[C@@H](CCC(=O)O)C(=O)N1CCC[C@H]1C(=O)N3)NC(=O)[C@H](CCCCN)NC(=O)CNC(=O)[C@H](CC(N)=O)NC(=O)[C@H](CCSC)NC2=O` [S11Nal], the pIC50 is under 8.48 against human Kv1.1 (HEK293), 8.83 at human Kv1.3 channel and 10.02 at human Kv1.3 (CHO). In addition, the half-maximal inhibitory concentration (IC50) against human Kv1.1 was 85300 pM.
For `CC[C@H](C)[C@@H]1NC(=O)[C@H](CCCCN)NC(=O)[C@@H](NC(=O)[C@H](CCCCN)NC(=O)[C@@H](NC(=O)[C@H](CC(N)=O)NC(=O)[C@@H](NC(=O)[C@@H](NC(=O)[C@@H](NC(=O)CN)C(C)C)[C@@H](C)CC)[C@@H](C)CC)C(C)C)CSSC[C@@H]2NC(=O)[C@H](CCCCN)NC(=O)CNC(=O)[C@H](Cc3ccccc3)NC(=O)[C@H](CCCNC(=N)N)NC(=O)[C@H](CCSC)NC(=O)CNC(=O)[C@H](C)NC(=O)[C@H](CCCCN)NC(=O)[C@H](CCCCN)NC(=O)[C@@H]3CSSC[C@@H](C(=O)N[C@H](C(=O)N4CCC[C@H]4C(=O)N[C@@H](CCCCN)C(=O)O)[C@@H](C)O)NC(=O)[C@H](Cc4c[nH]cn4)NC(=O)[C@H](CSSC[C@H](NC(=O)[C@H](CCC(N)=O)NC(=O)[C@H](CCCNC(=N)N)NC(=O)[C@H](CO)NC1=O)C(=O)N[C@@H](CC(C)C)C(=O)N[C@@H](CCC(=O)O)C(=O)N1CCC[C@H]1C(=O)N3)NC(=O)[C@H](CCCCN)NC(=O)CNC(=O)[C@H](CC(N)=O)NC(=O)[C@H](CCSC)NC2=O` [wild-type], at human Kv1.1, the IC50 worked out at 202 pM.
With `CC[C@H](C)[C@@H]1NC(=O)[C@H](CCCCN)NC(=O)[C@@H](NC(=O)[C@H](CCCCN)NC(=O)[C@@H](NC(=O)[C@H](CC(N)=O)NC(=O)[C@@H](NC(=O)[C@@H](NC(=O)[C@@H](NC(=O)CN)C(C)C)[C@@H](C)CC)[C@@H](C)CC)C(C)C)CSSC[C@@H]2NC(=O)[C@H](CCCCN)NC(=O)CNC(=O)[C@H](Cc3ccccc3)NC(=O)[C@H](CCCNC(=N)N)NC(=O)[C@H](CCSC)NC(=O)CNC(=O)[C@H](C)NC(=O)[C@H](CCCCN)NC(=O)[C@H](CCCCN)NC(=O)[C@@H]3CSSC[C@@H](C(=O)N[C@H](C(=O)N4CCC[C@H]4C(=O)N[C@@H](CCCCN)C(=O)O)[C@@H](C)O)NC(=O)[C@H](Cc4c[nH]cn4)NC(=O)[C@H](CSSC[C@H](NC(=O)[C@H](CCC(N)=O)NC(=O)[C@H](CCCNC(=N)N)NC(=O)[C@H](CO)NC1=O)C(=O)N[C@@H](CC(C)C)C(=O)N[C@@H](CCC(=O)O)C(=O)N1CCC[C@H]1C(=O)N3)NC(=O)[C@H](CCCCN)NC(=O)CNC(=O)[C@H](CC(N)=O)NC(=O)[C@H](CCSC)NC2=O` [OSK1, reference compound], the pIC50 against human Kv1.1 (hKv1.1: IC50) was 9.80.
